The results in this text go back to PubChem BioAssay AID641 (Vanderbilt High Throughput Screening Facility, 2007).

Chains of the proteins cited; added tags and fusions are not shown.
UniProt P21728, whole entry: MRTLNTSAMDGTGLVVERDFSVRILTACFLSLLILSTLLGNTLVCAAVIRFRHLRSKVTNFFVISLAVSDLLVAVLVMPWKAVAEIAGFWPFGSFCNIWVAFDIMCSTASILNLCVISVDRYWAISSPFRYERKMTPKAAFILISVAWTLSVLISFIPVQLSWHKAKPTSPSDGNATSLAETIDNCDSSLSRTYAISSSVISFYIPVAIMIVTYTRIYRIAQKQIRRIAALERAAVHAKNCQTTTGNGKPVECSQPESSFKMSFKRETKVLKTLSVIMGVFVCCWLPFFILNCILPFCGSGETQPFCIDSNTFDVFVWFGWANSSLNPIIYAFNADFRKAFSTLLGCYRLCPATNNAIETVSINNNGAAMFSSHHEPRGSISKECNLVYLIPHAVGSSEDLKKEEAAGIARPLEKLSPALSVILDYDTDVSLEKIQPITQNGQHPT

Structures are written as SMILES. This is a selection; strong and weak results do not stand in their true shares. Activity calls are given as the source filed them.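 Rule for the calls: active = luminescence count or its row- and column-corrected plate score outside the 99.7% band of the plate's sample wells, on either side; inactive = the rest.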

The target in this test is D(1A) dopamine receptor (Homo sapiens) (UniProt P21728). The test can be described thus: D1 CRE-luciferase signal change, two-sided – cell-based, HEK293 D1, dopamine EC30, D1 allosteric modulator project, primary screen (AID 641). Particulars: dopamine EC30 potentiation, at 10 µM, actives deviate in either direction.
On to `CP(=O)(Nc1ccccc1F)Oc1ccccc1` (stereo unspecified), for which the B-score was inactive: -0.137.

Turning to `CP(=O)(Nc1ccc2c(c1)OCCO2)Oc1ccccc1` (stereo unspecified), the B-score is inactive: -1.67. To `Cc1ccccc1NP(C)(=O)Nc1ccccc1C` belongs inactive: -0.932; to `CCOP(C)(=S)SCC(=O)NC(C)(CC)C(=O)O` (stereo unspecified), inactive: 0.0593; to `CN(C)CCOC(=O)C(O)(c1ccccc1)C1CCCCC1` (stereo unspecified), inactive: -0.236. Under `CP(=O)(Oc1ccccc1)N1CCOC1=O` (stereo unspecified) stands inactive: -0.412; under `CP(=O)(Nc1ccccn1)Oc1ccccc1` (stereo unspecified), inactive: -0.0686.

Turning to `Cc1nc2ccc3ccccc3c2o1.O=[N+]([O-])c1cc([N+](=O)[O-])c(O)c([N+](=O)[O-])c1`, the B-score is inactive: -0.325. Under `COc1ccccc1OP(C)(=O)Nc1ccc(C)c(C)c1` (stereo unspecified) stands inactive: -0.25; under `COc1ccccc1OP(C)(=O)Nc1ccc(C)cc1` (stereo unspecified), active: -3.21; under `Cc1ccc(NP(C)(=O)Oc2ccccc2)c(C)c1` (stereo unspecified), inactive: -1.59. To `CCOP(C)(=S)SCC(=O)NC(C)C(=O)O` (stereo unspecified) belongs inactive: 0.881; to `CP(=O)(NC(=O)Nc1ccccc1)Oc1ccccc1` (stereo unspecified), inactive: -0.451. To `CP(=S)(Nn1cnnc1)Oc1ccccc1` (stereo unspecified) belongs inactive: -0.0113.

Consider `Cc1nc2ccc3ccccc3c2s1.O=[N+]([O-])c1cc([N+](=O)[O-])c(O)c([N+](=O)[O-])c1`, for which the B-score is active: 5.03. `Cc1ccc(C)c(NP(C)(=O)Oc2ccccc2)c1` (stereo unspecified): the B-score is inactive: 0.00409.
